Literature values as cited in patent publication US8106007B2, “Conjugates of a polypeptide and a pentasaccharide” (N.V. Organon, priority 2005, dated 2012).

Settings: species not given; cited from earlier work

For “interleukin-2: protein produced naturally in the body by white blood cells (T-lymphocytes)”, the “t ½” value is given as 20 min.
